Results taken from US9284362B2, “α/β-peptide mimics of Z-domain peptides” (Wisconsin Alumni Research Foundation, priority 2014, dated 2016).
Read-outs that look alike come from different tables or passages of the source.

Sequences of proteins named here, by UniProt entry; tags and fusion partners are left off. Residues count along the entry.
UniProt P15692, 27-191 isoform P15692-4: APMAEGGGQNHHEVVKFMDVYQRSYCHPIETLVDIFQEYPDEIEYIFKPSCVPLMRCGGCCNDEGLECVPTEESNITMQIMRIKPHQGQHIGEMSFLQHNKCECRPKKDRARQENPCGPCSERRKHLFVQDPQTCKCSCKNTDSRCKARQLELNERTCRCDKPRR
UniProt P01375, 77-233 limits assumed: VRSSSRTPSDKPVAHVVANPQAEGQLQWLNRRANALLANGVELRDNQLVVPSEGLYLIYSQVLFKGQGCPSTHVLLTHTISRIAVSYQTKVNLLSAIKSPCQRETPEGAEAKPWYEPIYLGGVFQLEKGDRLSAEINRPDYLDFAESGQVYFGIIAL

Experiments:
[1] = molecular target: T1, VEGF (Homo sapiens, UniProt P15692); format: binding; conditions: FP tracer
T1 construct: made in house

[2] = molecular target: T1, VEGF; assay: VEGF competition fluorescence polarization (FP) assay; format: binding
[3] = molecular target: T2, TNFα (binding to immobilized TNFR1) (Homo sapiens, UniProt P01375); assay: TNFα/TNFR competition ELISA; conditions: read-out: TNFa-TNFR ELISA IC50; Table 14
T2 construct: purchased R&D Systems 210-TA-020 (TNFα); 636-R1-025 (sTNF RI)

Substance	Ki ([2]; Table 12, optimized designs) [µM]	IC50 [3] [µM]	further results
(BODIPY^TMR)-X-CDIHV(Nle)WEWECFERL-NH2 [BODIPY-v114*ΔNT]	–	–	Kd [1]: 0.021 µM
VDNKFNKEXCNZRAIEAALDPNLNDAQFHAKIWZIIXDC [S28]	0.34	–	–
VDNKFNKEXHNZRAIEAALDPNLNDQQFHAKIWZIIXD [α/β-VEGF-1-linear]	> 50	–	Ki ([2]; VEGF binding, competition FP assay (Table 1)): > 50 µM; Ki ([2]; read-out: Ki for VEGF, competition FP assay): > 50 µM
WRIGEAGTDPNLNHQQFRAKILZIWXDP-NH2 [α/β-TNFα-12]	–	> 10	–
XWRIGEAGTDPNLNHQQFRAKILZIWX-NH2 [α/β-TNFα-15]	–	> 10	–
